# Source: ChEMBL document CHEMBL1145020, “Synthesis and structure-activity relationships of 6,7-disubstituted 4-anilinoquinoline-3-carbonitriles. The design of an orally active, irreversible inhibitor of the tyrosine kinase activity of the epidermal growth factor receptor (EGFR) and the human epidermal growth factor receptor-2 (HER-2)” (J Med Chem, 2003)
# The chains behind the UniProt entries cited, without tags or fusion partners.
# UniProt P00533, whole entry: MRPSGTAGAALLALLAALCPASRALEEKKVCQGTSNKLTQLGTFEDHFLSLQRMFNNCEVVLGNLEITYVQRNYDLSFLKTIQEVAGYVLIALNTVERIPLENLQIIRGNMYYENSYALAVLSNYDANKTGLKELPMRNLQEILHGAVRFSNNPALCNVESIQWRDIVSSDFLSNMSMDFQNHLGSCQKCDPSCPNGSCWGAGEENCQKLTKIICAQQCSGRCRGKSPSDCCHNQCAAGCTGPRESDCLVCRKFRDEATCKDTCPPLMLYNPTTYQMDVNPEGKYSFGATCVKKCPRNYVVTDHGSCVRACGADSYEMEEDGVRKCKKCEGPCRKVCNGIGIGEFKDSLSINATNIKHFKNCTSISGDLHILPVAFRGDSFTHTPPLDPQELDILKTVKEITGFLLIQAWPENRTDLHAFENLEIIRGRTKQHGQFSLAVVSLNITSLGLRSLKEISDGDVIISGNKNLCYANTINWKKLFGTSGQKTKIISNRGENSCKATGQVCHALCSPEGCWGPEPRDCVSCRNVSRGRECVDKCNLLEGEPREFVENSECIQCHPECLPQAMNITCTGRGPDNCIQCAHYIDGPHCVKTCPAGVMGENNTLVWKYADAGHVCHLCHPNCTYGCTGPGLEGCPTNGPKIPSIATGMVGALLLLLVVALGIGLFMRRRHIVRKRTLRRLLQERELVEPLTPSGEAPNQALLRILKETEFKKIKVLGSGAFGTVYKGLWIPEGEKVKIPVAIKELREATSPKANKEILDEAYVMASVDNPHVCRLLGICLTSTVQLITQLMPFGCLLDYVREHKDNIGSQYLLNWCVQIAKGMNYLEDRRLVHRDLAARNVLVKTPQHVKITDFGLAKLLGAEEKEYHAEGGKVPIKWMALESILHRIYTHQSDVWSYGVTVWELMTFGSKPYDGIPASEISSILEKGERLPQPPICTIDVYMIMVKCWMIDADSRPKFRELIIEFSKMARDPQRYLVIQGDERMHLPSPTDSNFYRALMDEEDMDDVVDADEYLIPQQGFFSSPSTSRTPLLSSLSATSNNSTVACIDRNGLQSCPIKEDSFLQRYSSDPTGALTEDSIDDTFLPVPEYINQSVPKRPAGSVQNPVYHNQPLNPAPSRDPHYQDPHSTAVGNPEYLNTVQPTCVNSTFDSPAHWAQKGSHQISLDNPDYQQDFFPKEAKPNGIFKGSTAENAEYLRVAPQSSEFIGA
# UniProt P04626, whole entry: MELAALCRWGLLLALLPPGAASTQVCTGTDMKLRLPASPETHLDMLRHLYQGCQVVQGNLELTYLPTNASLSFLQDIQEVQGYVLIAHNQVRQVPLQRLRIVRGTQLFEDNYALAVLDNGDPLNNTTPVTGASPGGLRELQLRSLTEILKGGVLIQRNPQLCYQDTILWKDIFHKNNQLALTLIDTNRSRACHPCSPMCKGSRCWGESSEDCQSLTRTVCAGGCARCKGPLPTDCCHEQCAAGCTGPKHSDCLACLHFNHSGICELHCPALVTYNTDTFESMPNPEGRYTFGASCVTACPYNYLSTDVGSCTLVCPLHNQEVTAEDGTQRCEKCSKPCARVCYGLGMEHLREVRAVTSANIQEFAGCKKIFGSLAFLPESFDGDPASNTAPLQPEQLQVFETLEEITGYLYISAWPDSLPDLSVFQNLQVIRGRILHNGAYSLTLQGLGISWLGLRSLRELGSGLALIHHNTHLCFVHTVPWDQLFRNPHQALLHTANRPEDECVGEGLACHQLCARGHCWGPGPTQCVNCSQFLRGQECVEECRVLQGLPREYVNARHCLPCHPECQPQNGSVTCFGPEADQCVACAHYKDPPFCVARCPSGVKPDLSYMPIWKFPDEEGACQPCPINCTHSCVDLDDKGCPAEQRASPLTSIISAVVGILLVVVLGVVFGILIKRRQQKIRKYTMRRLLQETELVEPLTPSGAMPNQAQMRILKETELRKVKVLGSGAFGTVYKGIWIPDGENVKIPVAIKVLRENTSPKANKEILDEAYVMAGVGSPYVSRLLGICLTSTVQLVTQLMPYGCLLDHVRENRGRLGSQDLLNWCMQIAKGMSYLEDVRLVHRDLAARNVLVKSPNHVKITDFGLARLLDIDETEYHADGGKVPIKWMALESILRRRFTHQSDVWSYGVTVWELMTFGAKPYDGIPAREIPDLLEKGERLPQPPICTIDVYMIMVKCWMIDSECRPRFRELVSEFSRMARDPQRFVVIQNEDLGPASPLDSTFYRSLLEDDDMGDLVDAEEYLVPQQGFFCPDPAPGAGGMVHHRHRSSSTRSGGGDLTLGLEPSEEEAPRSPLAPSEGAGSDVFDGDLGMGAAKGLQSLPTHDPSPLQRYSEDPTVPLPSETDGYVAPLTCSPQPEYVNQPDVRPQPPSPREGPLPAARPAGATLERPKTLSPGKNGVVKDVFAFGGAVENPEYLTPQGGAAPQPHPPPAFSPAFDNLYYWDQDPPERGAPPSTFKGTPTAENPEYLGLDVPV
# pIC50: −log10 of the molar value.
# What was measured:
# A-431 = experiment: Concentration required to inhibit growth of human carcinoma epidermoid (A431) cell line; format: functional, cell-based
# SW-620 = experiment: Concentration required to inhibit growth of human carcinoma colon (SW620) cell line; format: functional, cell-based
# [1] = molecular target: Epidermal growth factor receptor (Homo sapiens, UniProt P00533)
# [2] = molecular target: Receptor tyrosine-protein kinase erbB-2 (Homo sapiens, UniProt P04626); experiment: Concentration required to inhibit autophosphorylation of cytoplasmic domain of human epidermal growth factor receptor-2
SMILES,pIC50 (A-431),pIC50 (SW-620),pIC50 [1],pIC50 [2]
COc1cc2ncc(C#N)c(Nc3ccc(F)c(Cl)c3)c2cc1NC(=O)/C=C/C(C)N(C)C (stereo not given),6.37,–,–,–
C/C=C/C(=O)Nc1cc2c(Nc3ccc(F)c(Cl)c3)c(C#N)cnc2cc1OCC,5.90,5.13,–,–
CCN(CC)C(C)/C=C/C(=O)Nc1cc2c(Nc3ccc(F)c(Cl)c3)c(C#N)cnc2cc1OC (stereo not given),6.42,–,–,–
CN(C)C/C=C/C(=O)Nc1cc2c(Nc3ccc(F)c(Cl)c3)c(C#N)cnc2cc1OC(F)(F)F,6.33,–,5.58,–

# More lines, now with the values ahead:
pIC50 (A-431),pIC50 (SW-620),pIC50 [1],pIC50 [2],SMILES
5.65,–,–,–,COc1cc(NC(=O)/C=C/CN2CCOCC2)cc2c(Nc3cccc(Br)c3)c(C#N)cnc12
6.23,–,4.98,–,COc1cc2ncc(C#N)c(Nc3ccc(F)c(Cl)c3)c2cc1NC(=O)/C=C/C(C)N1CCOCC1 (stereo not given)
–,–,–,5.35,C/C=C/C(=O)Nc1ccc2ncc(C#N)c(Nc3cccc(Br)c3)c2c1
